Experimental data as given in patent US20230248845A1, “COMBINATION OF AN ANTIBODY-DRUG CONJUGATE AND AN ANTIBODY-SAPONIN CONJUGATE” (SAPREME TECHNOLOGIES B.V., priority 2020, published 2023).

How the values were obtained:
[1] = in monkeys; cited from earlier work
SK-BR-3 cells (HER2^++) = assay: Cell viability assay (MTS), targeted protein toxin mediated cell killing; type: cell-based, human
Experimental: After treatment the cells were incubated for 72 hr at 37° C. before the cell viability was determined by a MTS-assay, performed according to the manufacturer's instruction (CellTiter 96® AQueous One Solution Cell Proliferation Assay, Promega). Briefly, the MTS solution was diluted 20× in DMEM without phenol red (PAN-Biotech GmbH) supplemented with 10% FBS. The cells were washed once with 200 μL/PBS well, after which 100 μL diluted MTS solution was added/well. The plate was incubated for approximately 20-30 minutes at 37° C. Subsequently, the OD at 492 nm was measured on a Thermo Scientific Multiskan FC plate reader (Thermo Scientific). For quantification the background signal of ‘medium only’ wells was subtracted from all other wells, before the cell viability percentage of treated/untreated cells was calculated, by dividing the background corrected signal of treated wells over the background corrected signal of the untreated wells (×100).

Row | Substance | enhancement of the tolerable dose of DM1 by conjugation to trastuzumab [1] | cell killing activity at high concentrations (SK-BR-3 cells (HER2^++); titrated on 50 pM trastuzumab-saporin, high concentrations, competition for HER2) | cell killing activity at higher concentrations (SK-BR-3 cells (HER2^++); titrated on fixed 50 pM pertuzumab-dianthin, higher concentrations)
1 | ado-trastuzumab emtansine: conjugation of DM1 to trastuzumab | at least two-fold | – | –
2 | trastuzumab-(Cys-L-SO1861)^4: trastuzumab conjugated to SO1861-EMCH via cysteine residues, DAR4 | – | cell killing activity is reduced | still effective
